Chains of the proteins cited; added tags and fusions are not shown.
UniProt P09917, whole entry: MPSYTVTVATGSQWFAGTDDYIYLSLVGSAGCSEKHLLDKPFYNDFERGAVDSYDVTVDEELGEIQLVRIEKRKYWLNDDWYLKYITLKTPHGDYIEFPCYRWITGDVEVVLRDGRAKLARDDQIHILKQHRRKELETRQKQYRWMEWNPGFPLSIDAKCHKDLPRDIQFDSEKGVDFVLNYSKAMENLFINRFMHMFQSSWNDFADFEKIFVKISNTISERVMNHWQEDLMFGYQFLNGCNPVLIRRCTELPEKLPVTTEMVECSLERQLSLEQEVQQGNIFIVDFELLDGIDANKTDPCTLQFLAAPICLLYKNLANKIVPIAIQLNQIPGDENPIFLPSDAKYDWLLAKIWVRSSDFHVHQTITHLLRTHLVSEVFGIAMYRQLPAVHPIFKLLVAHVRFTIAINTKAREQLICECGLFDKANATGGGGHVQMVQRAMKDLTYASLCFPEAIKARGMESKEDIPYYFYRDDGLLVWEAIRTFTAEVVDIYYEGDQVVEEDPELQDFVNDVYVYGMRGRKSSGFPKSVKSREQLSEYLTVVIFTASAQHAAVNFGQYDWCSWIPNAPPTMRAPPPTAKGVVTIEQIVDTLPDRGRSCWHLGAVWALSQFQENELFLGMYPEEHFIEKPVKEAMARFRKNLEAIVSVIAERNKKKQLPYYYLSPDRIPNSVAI
UniProt P12530, whole entry: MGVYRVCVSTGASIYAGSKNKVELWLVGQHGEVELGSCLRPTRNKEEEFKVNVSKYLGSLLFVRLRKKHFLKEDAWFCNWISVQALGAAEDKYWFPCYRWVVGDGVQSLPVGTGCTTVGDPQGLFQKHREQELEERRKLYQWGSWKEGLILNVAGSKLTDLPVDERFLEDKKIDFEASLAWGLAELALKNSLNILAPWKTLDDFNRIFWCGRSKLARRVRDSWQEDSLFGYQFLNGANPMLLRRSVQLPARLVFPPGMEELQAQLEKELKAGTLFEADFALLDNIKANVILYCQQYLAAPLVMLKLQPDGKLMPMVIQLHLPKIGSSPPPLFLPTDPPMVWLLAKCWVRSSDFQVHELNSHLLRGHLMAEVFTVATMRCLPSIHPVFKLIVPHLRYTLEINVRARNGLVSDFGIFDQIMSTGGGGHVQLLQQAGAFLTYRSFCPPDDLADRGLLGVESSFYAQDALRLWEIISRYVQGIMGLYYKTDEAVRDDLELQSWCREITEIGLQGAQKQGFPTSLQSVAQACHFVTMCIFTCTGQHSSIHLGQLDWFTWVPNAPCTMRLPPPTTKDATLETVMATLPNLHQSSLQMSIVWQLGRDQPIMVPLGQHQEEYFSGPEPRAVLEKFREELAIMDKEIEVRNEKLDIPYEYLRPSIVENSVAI

According to patent US7553837B2, “Phenylazole compounds production process and antioxidants” (Nippon Soda Co., Ltd., priority 2003, dated 2009):

What was measured:
[1] = test system: lipid peroxidation activity of each tissue homogenate (brain, heart and kidney); experiment: Tissue migration properties: ex vivo lipid peroxidation inhibition in brain, heart and kidney homogenates; details: SD male rats, 100 mg/kg intraperitoneally, 30 minutes after administration
5-lipoxygenase (5-LO) = 5-lipoxygenase (5-LO) (Homo sapiens, UniProt P09917); experiment: 5-lipoxygenase (5-LO) inhibitory activity, leukotriene B4 production in human peripheral blood mononuclear cells; details: read-out: Lipoxygenase inhibitory action 50% inhibitory dose (IC50) 5-LO, A23187, leukotriene B4 production
Description: A 5-LO inhibitory activity was measured by a partially modified process of a process of Carter et al. (Carter G. W, et al, J. Pharmacol. Exp. Ther.: 256, 929-37, 1991). That is, human peripheral blood mononuclear cells and each of test compounds dissolved in DMSO (final concentration: 1%) were preincubated (37° C., 15 minutes) in a Hanks' balanced salt solution and 30 μM A23187 was further added, followed by incubation (37° C., 30 minutes). The amount of leukotriene B4 produced as a result of incubation was determined by enzyme immunoassay and a 50% production inhibitory concentration (μM) against 5-LO of each test compound was calculated.

male mice = experiment: Acute oral toxicity, single oral dose, mortality rate after 7 days; type: in vivo; details: observed for 7 days
[2] = test system: abnormal behavior and fatality due to ferrous chloride; experiment: In vivo antioxidative activity: ferrous chloride administration into spinal subarachnoid cavity of mice; details: score after 60 minutes
Description: An in vivo antioxidative activity of the compounds of the present invention was evaluated from an abnormal behavior due to administration of ferrous chloride into spinal subarachnoid cavity of mice as well as an inhibitory effect of a fatality rate according to the process described in J. Med. Chem., 1997, Vol. 40, p. 559-573. Using Slc:ICR male mice (one group: 3 to 7 mice, 5 weeks old) (available from Nippon SLC Co., Ltd.), 5 μl of a 50 mM ferrous chloride physiological saline solution was administered to the spinal canal through the space between the fifth lumbar vertebrae and the sixth lumbar vertebrae. 20 to 60 minutes after administration of ferrous chloride, symptoms were observed and a score after 60 minutes was determined from symptoms shown in Table 32. Each of test compounds was dissolved or suspended in a physiological saline solution or a 1% poly oxy ethylene hydrogenated castor oil (NIKKOL HCO-60, manufactured by Nikko Chemicals Co., Ltd.) physiological saline solution and the resulting solution or suspension was intraperitoneally or orally administered 30 minutes before administration of ferrous chloride. a 50% inhibitory dose (hereinafter abbreviated to ID50) of the compounds of the present invention was determined from the score of a control group (physiological saline administration group) and the score of a test compound administration group. […]

[3] = molecular target: 15-LO obtained from reticulocyte of rabbit (Oryctolagus cuniculus, UniProt P12530); experiment: 15-lipoxygenase (15-LO) inhibitory activity, 15-HETE production; details: read-out: Lipoxygenase inhibitory action 50% inhibitory dose (IC50) 15-LO, 15-LO from reticulocyte of rabbit, linoleic acid
Description: A 15-LO inhibitory activity was measured by a partially modified process of a process of Auerbach et al. (Auerbach B. J, et al., Anal. Biochem.: 201, 375-80, 1992). That is, 15-LO obtained from reticulocyte of rabbit and each of test compounds dissolved in DMSO (final concentration: 1%) were preincubated (4° C., 15 minutes) in phosphoric acid buffer (pH 7.4) and 256 μM linoleic acid was further added, followed by incubation (4° C., 10 minutes). The amount of 15-HETE produced as a result of incubation was determined by spectrophotometry (OD660nm) and 50% production inhibitory concentration (μM) against 15-LO of each test compound was calculated. Compounds (R-3) and (R-4) (edaravone) of the following formulas were used as a control drug.

[4] = test system: lipid peroxidation activity in a rat brain homogenate; experiment: In vitro lipid peroxidation inhibition (rat brain homogenate, thiobarbituric acid process); details: read-out: In vitro lipid peroxidation inhibition 50% inhibitory concentration (IC50 μM), 500 μM cysteine, 5 μM sulfuric acid monobasic iron, 100 mM KCl, 37° C. for 30 minutes

## Cc1c(C)c2c(c(C)c1N)CC(C)(CN1CCc3c([nH]c4ccccc34)C1)O2 (stereo not drawn)
[1]; brain homogenate
  Ex vivo lipid peroxidation inhibition inhibition ratio (%) Brain: 98%
[1]; heart homogenate
  Ex vivo lipid peroxidation inhibition inhibition ratio (%) Heart: 90%
[1]; kidney homogenate
  Ex vivo lipid peroxidation inhibition inhibition ratio (%) Kidney: 94%
5-lipoxygenase (5-LO)
  IC50: 2800 nM
Male mice
  Mouse acute oral toxicity (LD50): >300 mg/kg
[2]; intraperitoneal administration 30 minutes before ferrous chloride into spinal canal
  In vivo antioxidation action 50% inhibitory concentration (ID50), Intraperitoneal administration: 5.4 mg/kg
[2]; oral administration 30 minutes before ferrous chloride into spinal canal
  In vivo antioxidation action 50% inhibitory concentration (ID50), Oral administration: 14 mg/kg
[3]
  IC50: 1570 nM
[4]
  IC50: 0.34 µM
